According to patent US20090252703A1, “Use of alcohol co-solvents to improve pegylation reaction yields” (priority 2006, published 2009):

Assay: solubility of CGRP peptides in aqueous conjugation buffer
Assay type: physicochemical
Details: aqueous conjugation buffers used for coupling vehicle to the peptide
Excerpt: Co-solvent mediated conjugation of vehicle to CGRP peptide antagonists.

solubility in aqueous buffer medium (in words): relatively insoluble
Compound: CC(=O)N[C@@H](Cc1c[nH]c2ccccc12)C(=O)N[C@H](C(=O)N[C@H](C(=O)N[C@@H](Cc1cnc[nH]1)C(=O)N[C@@H](CCCNC(N)=O)C(=O)N[C@@H](CC(C)C)C(=O)N[C@@H](C)C(=O)NCC(=O)N[C@@H](CC(C)C)C(=O)N[C@@H](CC(C)C)C(=O)N[C@@H](CO)C(=O)N[C@@H](CCCNC(N)=O)C(=O)N[C@@H](CO)C(=O)NCC(=O)NCC(=O)N[C@H](C(=O)N[C@H](C(=O)N[C@@H](CCCN=C(N)N)C(=O)N[C@@H](CCCCN)C(=O)N[C@@H](CC(N)=O)C(=O)N[C@@H](Cc1ccccc1)C(=O)N[C@H](C(=O)N1CCC[C@H]1C(=O)N[C@H](C(=O)N[C@@H](CC(=O)O)C(=O)N[C@H](C(=O)NCC(=O)N1CCC[C@H]1C(=O)N[C@@H](Cc1ccccc1)C(=O)N[C@@H](C)C(=O)N[C@@H](Cc1ccccc1)C(N)=O)C(C)C)[C@@H](C)O)C(C)C)C(C)C)C(C)C)[C@@H](C)O)C(C)C [SEQ ID NO:31, Ac-WVTH(Cit)LAGLLS(Cit)SGGVVRKNFVPTDVGPFAF-NH2]
